Experimental data from patent US12473298B2, “Amide compounds, preparation method therefor, and use thereof in the medical field” (Shanghai Synergy Pharmaceutical Sciences Co., Ltd., priority 2019, dated 2025).

How the values were obtained:
[1] = system: human diffuse large cell lymphoma B lymphocytes (Pfeiffer cell); assay: Pfeiffer cell proliferation, Calcein AM staining; type: cell-based; conditions: for IC50: Homo sapiens, Pfeiffer
[2] = system: human diffuse large B-cell lymphoma cells (Karpas 422 cell); assay: Karpas 422 cell proliferation, Calcein AM staining; type: cell-based; conditions: for IC50: Homo sapiens, KARPAS-422, read-out: Karpas422 Proliferation IC50 Nanomoles per Liter (nM), data of 14th day
[3] = read-out: Pfeiffer Proliferation IC50 Nanomoles per Liter (nM), data of 14th day
[4] = read-out: Pfeiffer Proliferation IC50 Nanomoles per Liter (nM)

## CCN(c1cc(-c2ccc3c(c2)N(C(C)=O)CC32CCOCC2)cc(C(=O)NCc2c(OC)cc(C)[nH]c2=O)c1C)C1CCOCC1 [Example 2, 5-(1-acetyl-2′,3′,5′,6′-tetrahydrospiro[dihydroindole-3,4′-pyran]-6-yl)-3-(ethyl(tetrahydro-2H-pyran-4-yl)amino)-N-((4-methoxy-6-methyl-2-carbonyl-1,2-dihydropyridin-3-yl)methyl)-2-methylbenzamide]
[1]; [3]
  IC50: 3.6 nM
[2]
  IC50: 2.78 nM

## CCN(c1cc(-c2ccc3c(c2)NC(=O)C32CCN(C)CC2)cc(C(=O)NCc2c(OC)cc(C)[nH]c2=O)c1C)C1CCOCC1 [Example 4, 3-(ethyl(tetrahydro-2H-pyran-4-yl)amino)-N-((4-methoxy-6-methyl-2-oxo-1,2-dihydropyridin-3-yl)methyl)-2-methyl-5-(1′-methyl-2-oxospiro[dihydroindole-3,4′-piperidine]-6-yl)benzamide]
[1]; read-out: Pfeiffer Proliferation IC50 Nanomoles per Liter, data of 14th day
  pIC50: 8.51
[2]; read-out: Karpas422 Proliferation IC50 Nanomoles per Liter, data of 14th day
  pIC50: 8.54

## CCN(c1cc(-c2ccc3c(c2)NCC32CCOCC2)cc(C(=O)NCc2c(OC)cc(C)[nH]c2=O)c1C)C1CCNCC1 [Example 5, 3-(ethyl(piperidin-4-yl)amino)-N-((4-methoxy-6-methyl-2-oxo-1,2-dihydropyridin-3-yl)methyl)-2-methyl-5-(2′,3′,5′,6′-tetrahydrospiro[indoline-3,4′-pyran]-6-yl)benzamide]
[1]; [3]
  IC50: 0.63 nM
[2]
  IC50: 0.91 nM

## CCN(c1cc(-c2ccc3c(c2)N(C)C(=O)C32CCOCC2)c(Cl)c(C(=O)NCc2c(C)cc(C)[nH]c2=O)c1C)C1CCOCC1 [Example 10, 2-chloro-N-((4,6-dimethyl-2-oxo-1,2-dihydropyridin-3-yl)methyl)-5-(ethyl(tetrahydro-2H-pyran-4-yl)amino)-6-methyl-3-(1-methyl-2-oxo-2′,3′,5′,6′-tetrahydrospiro[dihydroindole-3,4′-pyran]-6-yl)benzamide]
[2]
  IC50: 1.28 nM

## CCN(c1cc(-c2ccc3c(c2)N(C(C)C)CC32CCOCC2)c(Cl)c(C(=O)NCc2c(C)cc(C)[nH]c2=O)c1C)C1CCOCC1 [Example 11, 2-chloro-N-((4,6-dimethyl-2-carbonyl-1,2-dihydropyridin-3-yl)methyl)-5-(ethyl(tetrahydro-2H-pyran-4-yl)amino)-3-(1-isopropyl-2′,3′,5′,6′-tetrahydrospiro[dihydroindole-3,4′-pyran]-6-yl)-6-methylbenzamide]
[1]; [3]
  IC50: 1.26 nM
[2]
  IC50: 1.67 nM

## CCN(c1cc(-c2cc3c(cc2F)CCC32CCOCC2)cc(C(=O)NCc2c(OC)cc(C)[nH]c2=O)c1C)C1CCOCC1 [Example 16, 3-(ethyl(tetrahydro-2H-pyran-4-yl)amino)-5-(5-fluoro-2,2′,3,3′,5′,6′-hexahydrospiro[indene-1,4′-pyran]-6-yl)-N-((4-methoxy-6-methyl-2-carbonyl-1,2-dihydropyridin-3-yl)methyl)-2-methylbenzamide]
[2]
  IC50: 0.98 nM

## CCN(c1cc(-c2ccc3c(c2)N(C)CC32CCN(CC(F)(F)F)CC2)cc(C(=O)NCc2c(C)cc(C)[nH]c2=O)c1C)C1CCOCC1 [Example 22, N-((4,6-dimethyl-2-carbonyl-1,2-dihydropyridin-3-yl)methyl)-3-(ethyl(tetrahydro-2H-pyran-4-yl)amino)-2-methyl-5-(1-methyl-1′-(2,2,2-trifluoroethyl)spiro[dihydroindole-3,4′-piperidine]-6-yl)benzamide]
[1]; [3]
  IC50: 1.64 nM
[2]
  IC50: 2.54 nM

## CCN(c1cc(-c2ccc3c(c2)N(C(C)C)CC32CCOCC2)cc(C(=O)NCc2c(C)cc(C)[nH]c2=O)c1C)C1CCOCC1 [Example 25]
[1]; [4]
  IC50: 0.81 nM

## CCN(c1cc(-c2ccc3c(c2)N(C)C(=O)C32CCN(CC(F)(F)F)CC2)cc(C(=O)NCc2c(C)cc(C)[nH]c2=O)c1C)C1CCOCC1 [Example 27, N-((4,6-dimethyl-2-carbonyl-1,2-dihydropyridin-3-yl)methyl)-3-(ethyl(tetrahydro-2H-pyran-4-yl)amino)-2-methyl-5-(1-methyl-2-carbonyl-1′-(2,2,2-trifluoroethyl)spiro[dihydroindole-3,4′-piperidine]-6-yl)benzamide]
[1]; [3]
  IC50: 2.26 nM
[2]
  IC50: 2.74 nM

## CCN(c1cc(-c2ccc3c(c2)N(C)C(=O)C32CCNCC2)cc(C(=O)NCc2c(OC)cc(C)[nH]c2=O)c1C)C1CCOCC1 [Example 34, 3-(ethyl(tetrahydro-2H-pyran-4-yl)amino)-N-((4-methoxy-6-methyl-2-carbonyl-1,2-dihydropyridin-3-yl)methyl)-2-methyl-5-(1-methyl-2-carbonylspiro[dihydroindole-3,4′-piperidine]-6-yl)benzamide]
[1]; [3]
  IC50: 0.59 nM
[2]
  IC50: 1.65 nM

## CCN1CC2(CCOCC2)c2ccc(-c3cc(C(=O)NCc4c(C)cc(C)[nH]c4=O)c(C)c(N(CC)C4CCOCC4)c3)cc21 [Example 38, N-((4,6-dimethyl-2-oxo-1,2-dihydropyridin-3-yl)methyl)-3-(ethyl(tetrahydro-2H-pyran-4-yl)amino)-5-(1-ethyl-2′,3′,5′,6′-tetrahydrospiro[dihydroindole-3,4′-pyran]-6-yl)-2-methylbenzamide]
[1]; [3]
  IC50: 1.15 nM
[2]
  IC50: 2.42 nM

## CCN(c1cc(-c2ccc3c(c2)N(CC(F)(F)F)C(=O)C32CCNCC2)cc(C(=O)NCc2c(OC)cc(C)[nH]c2=O)c1C)C1CCOCC1 [Example 41, 3-(ethyl(tetrahydro-2H-pyran-4-yl)amino)-N-((4-methoxy-6-methyl-2-oxo-1,2-dihydropyridin-3-yl)methyl)-2-methyl-5-(2-oxo-1-(2,2,2-trifluoroethyl)spiro[dihydroindole-3,4′-piperidine]-6-yl)benzamide]
[1]; [3]
  IC50: 1.87 nM
[2]
  IC50: 3.5 nM

## CCN(c1cc(-c2ccc3c(c2)N(C(C)C)C(=O)C32CCOCC2)c(Cl)c(C(=O)NCc2c(C)cc(C)[nH]c2=O)c1C)C1CCOCC1 [Example 46, 2-chloro-N-((4,6-dimethyl-2-oxo-1,2-dihydropyridin-3-yl)methyl)-5-(ethyl(tetrahydro-2H-pyran-4-yl)amino)-3-(1-isopropyl-2-oxo-2′,3′,5′,6′-tetrahydrospiro[dihydroindole-3,4′-pyran]-6-yl)-6-methylbenzamide]
[1]; [3]
  IC50: 4.79 nM
[2]
  IC50: 5.32 nM

## CCN(c1cc(-c2ccc3c(c2)N(C(C)C)C(=O)C32CCOCC2)cc(C(=O)NCc2c(OC)cc(C)[nH]c2=O)c1C)C1CCOC(C)(C)C1 (stereo not shown) [Example 64, 3-((2,2-dimethyltetrahydro-2H-pyran-4-yl)(ethyl)amino)-5-(1-isopropyl-2-carbonyl-2′,3′,5′,6′-tetrahydrospiro[dihydroindole-3,4′-pyran]-6-yl)-N-((4-methoxy-6-methyl-2-carbonyl-1,2-dihydropyridin-3-yl)methyl)-2-methylbenzamide]
[1]; [4]
  IC50: 0.75 nM

## CCN(c1cc(-c2ccc3c(c2)NC(=O)C32CCOCC2)cc(C(=O)NCc2c(C)cc(C)[nH]c2=O)c1C)C1CCNCC1 [Example 76, N-((4,6-dimethyl-2-oxo-1,2-dihydropyridin-3-yl)methyl)-3-(ethyl(piperidin-4-yl)amino)-2-methyl-5-(2-oxo-2′,3′,5′,6′-tetrahydrospiro[dihydroindole-3,4′-pyran]-6-yl)benzamide]
[1]; [3]
  IC50: 0.1 nM
[2]
  IC50: 0.15 nM

## CCN(c1cc(-c2ccc3c(c2)NC(=O)C32CCN(C)CC2)cc(C(=O)NCc2c(OC)cc(C)[nH]c2=O)c1C)C1CCOCC1 [Example 114, 3-(Ethyl(tetrahydro-2H-pyran-4-yl)amino)-N-((4-methoxy-6-methyl-2-oxo-1,2-dihydropyridin-3-yl)methyl)-2-methyl-5-(1′-methyl-2-oxospiro[dihydroindole-3,4′-piperidine]-6-yl)benzamide]
[1]; [3]
  IC50: 3.34 nM
[2]
  IC50: 4.61 nM

pIC50: −log10 of the molar value. Where two headings read alike, the source gives them in different places.
